This list holds what a sample rich in hits left over. Inconclusive results are not listed. The source made the active and inactive calls. The call rests on the fitted dose curve; in most records, active means well fitted inhibition curve with a large enough effect; inconclusive means small, poorly fitted or top-dose-only effect; inactive means flat fitted curve, though single readings scatter.

The text below walks through data of PubChem BioAssay (NCATS).
On the % scale 0 is the no-effect control and ±100 the full control effect.

For one experiment, the system named is UISO. The experiment in a line: qHTS assay to identify novel small-molecules to repurpose for Merkel cell carcinoma treatment (AID 1296009). Further: nearly all actives have a fitted effect of over 60% in size. As to conditions: MCC and control cell lines, CellTiter-Glo viability, 72 h; at 46 µM (top of the series). An outline of the steps: (§1)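 Dose-response viability screen; 72 hr exposure at 37 degree celsius; CellTiter-Glo added, 10 min room temperature, luminescence read; RLUs scaled between no-cell and DMSO wells.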
On the technique in general: qHTS replaces the single test concentration by a dilution series.
With `Cc1cccc(C)c1OCC(=O)N[C@@H](Cc1ccccc1)[C@@H](O)C[C@H](Cc1ccccc1)NC(=O)[C@H](C(C)C)N1CCCNC1=O`, the activity change, negative = cytotoxicity is inactive: 4.69%.
Regarding `CC(C)Oc1ccc2c(=O)c(-c3ccccc3)coc2c1`, the activity change, negative = cytotoxicity was inactive: -3.49%.
`Cc1nnc(NS(=O)(=O)c2ccc(N)cc2)s1`: the activity change, negative = cytotoxicity is inactive: -4.52%.
On the same count and under the same terms, then `Oc1ccc(C2CNCCc3c2cc(O)c(O)c3Cl)cc1` (stereo not drawn), with inactive: -23.3%.
Regarding `CCCCc1nc(Cl)c(CO)n1Cc1ccc(-c2ccccc2-c2nn[nH]n2)cc1`, the activity change, negative = cytotoxicity was inactive: 6.96%.
On to `COc1cccc(OC)c1C(=O)N[C@@H]1C(=O)N2[C@@H]1SC(C)(C)[C@@H]2C(=O)O`, for which the activity change, negative = cytotoxicity was inactive: 23.1%.
For `N[C@@H]1CONC1=O`, the activity change, negative = cytotoxicity is inactive: 26.1%.
Regarding `Nc1nc2c(ncn2COCCO)c(=O)[nH]1`, the activity change, negative = cytotoxicity was inactive: -3.04%.
For the compound `CN1C(CCl)Nc2cc(Cl)c(S(N)(=O)=O)cc2S1(=O)=O` (stereo not drawn), the activity change, negative = cytotoxicity is inactive: -1.26%.
In the case of `Nc1[nH]c(=O)ncc1F`, the activity change, negative = cytotoxicity was inactive: 14%.

Another experiment concerns WaGa. The experiment is described as above. To be noted: MCC and control cell lines, CellTiter-Glo viability, 72 h; at 46 µM (top of the series). An outline of the steps: as §1
(In general: In ATP-based viability assays light output follows the ATP content of the culture.)
`CC(C)Oc1ccc2c(=O)c(-c3ccccc3)coc2c1`: the activity change, negative = cytotoxicity is inactive: -7.88%.
Take `Cc1nnc(NS(=O)(=O)c2ccc(N)cc2)s1`: the activity change, negative = cytotoxicity is inactive: -1.2%.
Same read-out and setting: the value for `CCCCc1nc(Cl)c(CO)n1Cc1ccc(-c2ccccc2-c2nn[nH]n2)cc1` was inactive: 14.9%; that for `COc1cccc(OC)c1C(=O)N[C@@H]1C(=O)N2[C@@H]1SC(C)(C)[C@@H]2C(=O)O` was inactive: 4.66%.
Turning to `N[C@@H]1CONC1=O`, the activity change, negative = cytotoxicity was inactive: -8.99%.
Regarding `Nc1nc2c(ncn2COCCO)c(=O)[nH]1`, the activity change, negative = cytotoxicity is inactive: 11%.
As for `CN1C(CCl)Nc2cc(Cl)c(S(N)(=O)=O)cc2S1(=O)=O` (stereo not drawn), the activity change, negative = cytotoxicity was inactive: -0.0501%.
`Nc1[nH]c(=O)ncc1F`: the activity change, negative = cytotoxicity is inactive: 8.51%.
